Target: Nluc-AT1R(S186) (Homo sapiens, UniProt P30556)
Assay: BRET competition binding with fluorescent ligand 3
Details: kinetic BRET competition binding with 3 at Nluc-AT1R(S186)

CCCCc1nc(Cl)c(CO)n1Cc1ccc(-c2ccccc2-c2nn[nH]n2)cc1 [losartan]
time until pIC50 value stabilized: ≤ 45 min

Source: PMC9667534, “Insertion of Nanoluc into the Extracellular Loops as a Complementary Method To Establish BRET-Based Binding Assays for GPCRs” (ACS Pharmacology & Translational Science, 2022)
